Measurements from patent EP0933350A1, “Tricyclic retinoids, methods for their production and use” (LIGAND PHARMACEUTICALS INCORPORATED, priority 1994, dated 1996).

Legend:
Format in all cases: cell-based
TPA induction of ODC = experiment: ornithine decarboxylase (ODC) assay: inhibition of TPA induction of ODC; settings: concentration required to inhibit the TPA induction of ODC by 80 percent
RPMI 8226 cell line = experiment: incorporation of 3H-thymidine (antiproliferative); settings: Homo sapiens, 96 hours, radiolabeled thymidine incorporation, read-out: TdR IC50
ME 180 cell line = experiment: incorporation of 3H-thymidine (antiproliferative); settings: Homo sapiens, 96 hours, radiolabeled thymidine incorporation, read-out: TdR IC50

## CC1=C(/C=C/C(C)=C/C=C/C(C)=C/C(=O)O)C(C)(C)CCC1 [ATRA, all-trans retinoic acid, reference compound]
TPA induction of ODC
  IC80: 1.4 nM
RPMI 8226 cell line
  IC50: 102 nM
ME 180 cell line
  IC50: 253 nM
